# Assay results taken from ChEMBL document CHEMBL5126555, “Targeting breast cancer resistance protein (BCRP/ABCG2): Functional inhibitors and expression modulators” (Eur J Med Chem, 2022).
# By UniProt entry, the sequences of proteins in these tests, tags left out. Where a name states a change or a piece, a line headed by the entry shows the natural chain unless it says otherwise.
# UniProt Q9UNQ0: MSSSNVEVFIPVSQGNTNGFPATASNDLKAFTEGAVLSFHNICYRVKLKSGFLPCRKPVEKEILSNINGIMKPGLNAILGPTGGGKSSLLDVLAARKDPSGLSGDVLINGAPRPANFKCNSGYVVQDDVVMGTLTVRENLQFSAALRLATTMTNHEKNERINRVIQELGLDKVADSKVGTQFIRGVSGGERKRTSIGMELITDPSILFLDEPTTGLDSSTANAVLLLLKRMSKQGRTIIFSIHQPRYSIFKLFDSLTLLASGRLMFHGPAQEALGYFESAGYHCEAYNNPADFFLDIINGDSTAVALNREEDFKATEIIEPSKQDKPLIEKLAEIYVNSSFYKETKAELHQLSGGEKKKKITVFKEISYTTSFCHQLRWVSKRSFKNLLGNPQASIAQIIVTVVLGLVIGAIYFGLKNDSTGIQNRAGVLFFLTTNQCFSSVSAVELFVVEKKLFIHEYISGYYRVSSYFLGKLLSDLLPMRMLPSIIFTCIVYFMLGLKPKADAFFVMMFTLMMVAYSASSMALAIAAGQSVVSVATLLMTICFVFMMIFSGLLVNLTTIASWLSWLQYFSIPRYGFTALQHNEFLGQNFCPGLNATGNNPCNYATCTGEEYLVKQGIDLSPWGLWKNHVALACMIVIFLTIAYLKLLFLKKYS
# Experiments:
# [1] = target: T1, Broad substrate specificity ATP-binding cassette transporter ABCG2 (Homo sapiens, UniProt Q9UNQ0)
# [2] = target: T1, Broad substrate specificity ATP-binding cassette transporter ABCG2; test: Inhibition of ABCG2 (unknown origin) expressed in human HEK293 cells membrane vesicles assessed inhibition of BCRP- mediated transport of 3[H]-E1S for 1 mins using [3H]-estrone sulfate as substrate by rapid filtration technique; format: cell membranes, Membrane vesicle
Compound,pIC50 [1],pIC50 [2]
COc1cc2ncnc(Nc3ccc(F)c(Cl)c3)c2cc1OCCCN1CCOCC1 [GEFITINIB],6.30,–
CO[C@H]1/C=C/O[C@@]2(C)Oc3c(C)c(O)c4c(O)c(c(/C=N/N5CCN(C)CC5)c(O)c4c3C2=O)NC(=O)/C(C)=C\C=C\[C@H](C)[C@H](O)[C@@H](C)[C@@H](O)[C@@H](C)[C@H](OC(C)=O)[C@@H]1C [RIFAMPIN],–,4.25

# pIC50: −log10 of the molar value.
